Values quoted from earlier work, collected in patent US7521479B2 (priority 2001, dated 2009).

Amino acid sequences for entries named in this document (tags omitted). Residues count along the entry.
UniProt P05067, 672-711 limits assumed: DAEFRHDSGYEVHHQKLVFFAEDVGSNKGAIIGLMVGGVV

Target: Aβ1-40 (Homo sapiens, UniProt P05067)
Conditions: cited from earlier work

In the case of O=C1C=CC(=O)C=C1 [p-benzoquinone], the “inhibition of Aβ1-40 aggregation and neurotoxicity” value is listed as “inhibit Aβ1-40 aggregation and neurotoxicity at comparable molar concentrations to rifampicin”.
